One may read the Ki as the equilibrium dissociation constant of an inhibitor or competing ligand from its target. Higher therefore signals a looser hold on the target.

Chains of the proteins cited; added tags and fusions are not shown.
UniProt P30536, whole entry: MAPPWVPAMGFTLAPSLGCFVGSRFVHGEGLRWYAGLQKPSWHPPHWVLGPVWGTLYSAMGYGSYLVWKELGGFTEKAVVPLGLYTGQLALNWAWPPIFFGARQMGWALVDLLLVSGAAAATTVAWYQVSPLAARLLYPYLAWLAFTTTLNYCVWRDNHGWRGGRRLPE

The target of the test is T1, TSPO (Homo sapiens, UniProt P30536).
T1 construct: from tissue; host or cells: isolated human leukocytes (membranes)
Description: In vitro TSPO binding assay, competition with [3H]PK11195 in membrane of human leukocytes.

Turning to `CCC(C)N(C)C(=O)c1cc2ccccc2c(-c2ccccc2Cl)n1` (stereo not shown) [PK11195, reference compound], the affinity corresponds to a Ki of 1.34 nM.

The record behind these values is article PMC10142799, “Synthesis, In Silico and In Vitro Characterization of Novel N,N-Substituted Pyrazolopyrimidine Acetamide Derivatives for the 18KDa Translocator Protein (TSPO)” (Pharmaceuticals, 2023).
